Target: human recombinant mGluR5 (Homo sapiens, UniProt P41594)
Test: positive modulation of mGluR5, calcium based FLIPR assay in HEK 293 cells
Settings: read-out: EC50 of the modulation; HEK 293 cell line expressing human recombinant mGluR5; peak height of Ca release fluorescence signal after glutamate at approximately 5% basal stimulation; nonlinear regression
Description: The positive modulation of mGluR5 is measured in a HEK 293 cell line expressing human recombinant mGluR5 and is detected with calcium based FLIPR assay. The cells are cultured with DMEM supplemented with 10% FCS, 2 μg/mL tetracycline, 100 μg/mL hygromycin and 500 μg/mL gneticin. The cell culture media is exchanged for tetracycline-free cell culture media 3-7 days before the assay. One day before the assay the cell culture medium is exchanged to DMEM without glutamine and phenol red and supplemented with 10% FCS, 100 μg/mL hygromycin and 500 μg/mL geneticin. On the assay day, the medium of the subconfluent cultures is removed and the cells are detached by addition of 2.5 ml EDTA(0.02%) per 175 cm2 culture flask for 1 minute. […]
20 μl of each compound solution are then transferred to the assay plate and the Ca2+ kinetic is measured to determine any intrinsic compound activity. After 5 min incubation in the FLIPR device, the second stimulation with 20 μl of glutamate in Ringer solution (glutamate concentration adjusted to approximately 5% basal stimulation of the maximal possible glutamate effect) is added and the kinetic Ca2+ response of the wells was measured for the modulation effect.
The peak height of the Ca release related fluorescence signal (9-66) is used for the EC50. The EC50 of the modulation is calculated over a nonlinear regression with GraphPad Prism (Table 1).

By UniProt entry, the sequences of proteins in these tests, tags left out. Residues count along the entry.
UniProt P41594, 21-1212 limits assumed: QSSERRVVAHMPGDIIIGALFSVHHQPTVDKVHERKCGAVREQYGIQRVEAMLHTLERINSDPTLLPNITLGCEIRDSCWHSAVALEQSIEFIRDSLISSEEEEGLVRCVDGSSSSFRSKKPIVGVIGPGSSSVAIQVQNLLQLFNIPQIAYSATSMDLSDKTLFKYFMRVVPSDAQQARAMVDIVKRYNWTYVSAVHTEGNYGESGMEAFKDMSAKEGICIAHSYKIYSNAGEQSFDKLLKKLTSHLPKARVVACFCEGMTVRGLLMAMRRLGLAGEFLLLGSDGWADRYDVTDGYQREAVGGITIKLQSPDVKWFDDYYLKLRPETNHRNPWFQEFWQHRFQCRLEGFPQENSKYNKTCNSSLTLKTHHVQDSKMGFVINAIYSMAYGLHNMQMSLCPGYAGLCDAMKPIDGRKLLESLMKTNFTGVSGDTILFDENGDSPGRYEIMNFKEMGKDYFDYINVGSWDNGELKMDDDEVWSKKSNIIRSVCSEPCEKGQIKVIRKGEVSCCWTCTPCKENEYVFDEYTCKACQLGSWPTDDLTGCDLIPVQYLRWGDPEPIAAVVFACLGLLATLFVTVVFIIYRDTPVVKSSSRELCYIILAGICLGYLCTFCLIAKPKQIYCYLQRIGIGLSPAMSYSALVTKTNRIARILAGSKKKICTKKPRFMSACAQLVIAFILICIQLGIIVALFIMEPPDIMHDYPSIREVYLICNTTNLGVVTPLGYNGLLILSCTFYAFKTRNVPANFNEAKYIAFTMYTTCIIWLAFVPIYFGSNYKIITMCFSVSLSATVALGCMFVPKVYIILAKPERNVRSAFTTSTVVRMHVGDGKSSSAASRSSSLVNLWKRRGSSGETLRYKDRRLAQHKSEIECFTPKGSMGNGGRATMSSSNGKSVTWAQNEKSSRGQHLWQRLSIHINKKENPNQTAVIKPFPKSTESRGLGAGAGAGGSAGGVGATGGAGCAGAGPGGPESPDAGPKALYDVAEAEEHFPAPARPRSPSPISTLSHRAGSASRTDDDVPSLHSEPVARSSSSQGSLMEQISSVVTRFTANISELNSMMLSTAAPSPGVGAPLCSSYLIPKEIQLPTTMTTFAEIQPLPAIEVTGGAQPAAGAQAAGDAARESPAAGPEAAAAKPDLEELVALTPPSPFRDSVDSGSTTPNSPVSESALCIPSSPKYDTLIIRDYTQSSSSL

Q: How did the EC50 turn out when `Cc1ccc(-c2cc(-c3ccccc3)n(CC(=O)N3CCN(c4ccccn4)CC3)n2)nc1C` was run?
A: 29 nM

From patent publication US8822464B2, “N-aryl-piperazine derivatives and their use as positive allosteric modulators of mGluR5 receptors” (Boehringer Ingelheim International GmbH, priority 2011, dated 2014)
